From patent US4735953A, “Pharmaceutical preparation for learning stimulation and memory improvement” (priority 1986, dated 1988) come the findings set out here.

For the assay, the system named is rabbit's brain hemispheres. The assay is described as follows: Amplitude of induced potential in brain hemispheres (acoustic irritation). Type of assay: in vivo. Particulars: rabbits. As to the method:
In the third series of experiments the effect of the preparation according to the present invention on the functional brain asymmetry was studied. The experiments were carried out on rabbits with electrodes implanted in the brain. The electrodes under nembutal narcosis (40 mg/kg) were implanted strictly symmetrically into the bearing zone of the temporal cortex of the right and left hemispheres on its lateral surface, whereas the indifferent electrode was secured to the nasal bones of a rabbit's skull. The acoustic irritation was applied through earphones. As the acoustic irritation a sound click caused by a square-shaped pulse from an electronic stimulator with a frequency of 0.1-0.2 Hz was used; the click intensity was adjusted within the range of from 5 to 80 Db. The amplification of the taken-off biopotentials was effected on an electroencephalograph; the induced potentials were obtained by means of an analyzer. 100 experiments on 20 animals were thus conducted; the interval between experiments on one animal was 7 days. The amplitude and form of the induced potential were determined. The asymmetry factor (Kas) was calculated by the formula: [formula] Ar --amplitude of the induced potential of the […] hemisphere, μV;
A1 --amplitude of the induced potential of the left hemisphere.
The test preparations were administered hypodermally in the form of 0.5-1.5% aqueous solutions 20 minutes before the beginning of the measurements.

In the case of `CNC(=O)Oc1ccc2c(c1)[C@]1(C)CCN(C)[C@@H]1N2C` [Physostigmine, physostigmine], the “amplitude of induced potentials (in words)” value was “increased amplitude of the induced potential”. Also, for the setting “hypodermally 0.04 mg/kg”, the “Change of amplitude of induced potential, % of the control, left hemisphere” value (“Change … % of the control, left hemisphere” below) came to 115%; the “Change of amplitude of induced potential, % of the control, right hemisphere” value (“Change … % of the control, right hemisphere” below) was 175%; the “Mean value of amplitude of induced potential, %” value (“Mean value of amplitude … %” for short) is 145%.
As to `COc1ccc2c3c1O[C@H]1C[C@@H](O)C=C[C@@]31CCN(C)C2` [Galantamine], where the note is “hypodermally 3 mg/kg”, the “Change … % of the control, left hemisphere” value is listed as 150%; the “Change … % of the control, right hemisphere” value came to 165%; the “Mean value of amplitude … %” value is recorded as 160%.
`NC(=O)CN1CCCC1=O` [Pyracetam, pyracetam]: for the setting “hypodermally 100 mg/kg”, the “Change … % of the control, left hemisphere” value is on record as 110%; the “Change … % of the control, right hemisphere” value turned out to be 105%; the “Mean value of amplitude … %” value was determined as 107%.
